The target of experiment [1] is TrkB (or NTRK2) (Homo sapiens, UniProt Q16620). Nature of the experiment: In vitro kinase glo plus-based kinase assay, TrkB. Format: biochemical. As to conditions: read-out: IC50 (μM) TrkB; comparative experiments; 40 μM ATP. For orientation: Kinase-Glo measures the ATP left after a reaction by luminescence.
The target in experiment [2] is TrkA (or NTRK1) (Homo sapiens, UniProt P04629). The experiment can be described thus: In vitro kinase glo plus-based kinase assay, TrkA. In kind it is biochemical. As to conditions: read-out: IC50 (μM) TrkA; comparative experiments; 30 μM ATP.

Sequences of proteins named here, by UniProt entry; tags and fusion partners are left off. Residues count along the entry.
UniProt Q16620, 455-822 limits assumed: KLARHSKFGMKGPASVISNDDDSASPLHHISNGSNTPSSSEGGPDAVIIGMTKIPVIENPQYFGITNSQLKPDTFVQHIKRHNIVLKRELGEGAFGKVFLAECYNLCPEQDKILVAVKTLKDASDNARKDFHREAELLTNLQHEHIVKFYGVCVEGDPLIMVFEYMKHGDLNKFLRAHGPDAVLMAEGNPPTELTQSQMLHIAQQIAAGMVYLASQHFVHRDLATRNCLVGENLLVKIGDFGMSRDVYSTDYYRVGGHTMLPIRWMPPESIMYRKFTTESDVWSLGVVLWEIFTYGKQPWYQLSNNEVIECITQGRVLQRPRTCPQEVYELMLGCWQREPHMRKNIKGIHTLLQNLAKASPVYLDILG
UniProt P04629, 440-796 limits assumed: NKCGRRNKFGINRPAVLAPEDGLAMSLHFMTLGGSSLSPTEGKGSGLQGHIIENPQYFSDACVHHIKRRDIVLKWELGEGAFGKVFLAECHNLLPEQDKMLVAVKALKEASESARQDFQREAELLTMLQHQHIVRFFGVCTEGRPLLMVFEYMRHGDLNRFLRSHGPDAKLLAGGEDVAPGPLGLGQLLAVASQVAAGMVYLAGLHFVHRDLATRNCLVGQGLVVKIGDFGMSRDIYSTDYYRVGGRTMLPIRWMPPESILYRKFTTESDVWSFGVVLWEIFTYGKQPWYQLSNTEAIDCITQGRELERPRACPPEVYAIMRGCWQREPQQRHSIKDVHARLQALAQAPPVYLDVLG

For the compound `CN1CCN(c2ccc(C(=O)Nc3n[nH]c4nc(Sc5ccc(F)cc5F)ccc34)cc2)CC1`, the IC50 – broadly, the point on the concentration scale where inhibition reaches its midpoint – was 0.048 µM in experiment [1] and 0.04 µM in experiment [2].

(Values after US9381195B2, “Derivatives of azaindazole or diazaindazole type for treating pain” (PIERRE FABRE MEDICAMENT, priority 2012, dated 2016).)
